Molecular target: T1, Tyrosine-protein kinase JAK3 (Homo sapiens, UniProt P52333)
T1 sequence (P52333 whole entry): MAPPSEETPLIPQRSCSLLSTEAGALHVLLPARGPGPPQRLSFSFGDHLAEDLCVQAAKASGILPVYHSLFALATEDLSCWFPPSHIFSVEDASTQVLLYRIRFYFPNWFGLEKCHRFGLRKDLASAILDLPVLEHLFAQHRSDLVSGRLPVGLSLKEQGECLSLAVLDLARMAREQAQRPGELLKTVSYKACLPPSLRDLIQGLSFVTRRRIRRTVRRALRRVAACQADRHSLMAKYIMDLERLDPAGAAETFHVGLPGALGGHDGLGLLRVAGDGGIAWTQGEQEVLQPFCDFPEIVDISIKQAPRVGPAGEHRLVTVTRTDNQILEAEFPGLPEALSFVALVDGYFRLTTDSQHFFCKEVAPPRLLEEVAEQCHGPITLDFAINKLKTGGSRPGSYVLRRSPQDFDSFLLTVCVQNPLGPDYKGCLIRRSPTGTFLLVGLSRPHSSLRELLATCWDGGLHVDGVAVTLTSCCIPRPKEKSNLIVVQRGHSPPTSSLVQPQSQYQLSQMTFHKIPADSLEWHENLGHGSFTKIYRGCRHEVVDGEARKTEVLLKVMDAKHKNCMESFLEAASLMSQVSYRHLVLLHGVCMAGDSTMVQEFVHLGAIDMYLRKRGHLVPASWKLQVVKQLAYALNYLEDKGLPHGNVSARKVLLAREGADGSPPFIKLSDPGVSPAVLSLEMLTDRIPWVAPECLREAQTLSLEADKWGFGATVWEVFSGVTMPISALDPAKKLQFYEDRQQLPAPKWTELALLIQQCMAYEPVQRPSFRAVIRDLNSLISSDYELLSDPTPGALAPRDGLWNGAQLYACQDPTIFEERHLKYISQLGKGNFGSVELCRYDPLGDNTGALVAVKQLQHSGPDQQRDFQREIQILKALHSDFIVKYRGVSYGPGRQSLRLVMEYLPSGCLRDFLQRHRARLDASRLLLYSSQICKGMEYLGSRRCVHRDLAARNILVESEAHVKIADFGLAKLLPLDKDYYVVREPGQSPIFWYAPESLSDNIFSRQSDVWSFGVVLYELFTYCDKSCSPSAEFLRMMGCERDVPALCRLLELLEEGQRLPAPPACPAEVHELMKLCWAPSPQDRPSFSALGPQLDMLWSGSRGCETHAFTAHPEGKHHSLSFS
Experiment: Recombinant GST-tagged JAK enzymes and a GFP-tagged STAT1 peptide substrate were obtained from Life Technologies.Serially diluted compounds were pre-incubated with each of the four JAK enzymes and the substrate in white 384-well microplates (Corning) at ambient temperature for 1 h. ATP was subsequently added to initiate the kinase reactions in 10 μL total volume, with 1% DMSO. […] Kinase reactions were allowed to proceed for 1 hour at ambient temperature before a 10 μL preparation of EDTA (10 mM final concentration) and Tb-anti-pSTAT1 (pTyr701) antibody (Life Technologies, 2 nM final concentration) in TR-FRET dilution buffer (Life Technologies) was added. The plates were allowed to incubate at ambient temperature for 1 h before being read on the EnVision reader (Perkin Elmer).

`CCc1cc(O)c(F)cc1-c1ccc2c(-c3nc4c([nH]3)CN(C)[C@H](C(=O)N3CCN(C)C[C@@H]3C)C4)n[nH]c2c1` showed a Ki of 0.16 nM.

— ChEMBL document CHEMBL5728992, “Fused imidazo-piperidine JAK inhibitors” (2022)
